Values quoted from earlier work in PMC6007947, “Sensitivity of pretargeted immunoPET using ^68Ga-peptide to detect colonic carcinoma liver metastases in a murine xenograft model: Comparison with ^18FDG PET-CT” (Oncotarget, 2018).

System: CRC liver metastases

OC[C@H]1OC(O)[C@H](F)[C@@H](O)[C@@H]1O (some centres unmarked)
Reported sensitivity for lesions < 10 mm (lesions < 10 mm): 50% | Reported sensitivity for detection of CRC liver metastases (overall, before the fall for small lesions): 88%
